# Test results reported in PubChem BioAssay AID720513 (Broad Institute, 2013).
# This is a selection; strong and weak results do not stand in their true shares. Potency and affinity values are given separately. Inconclusive results are not listed. Activity calls are given as the source filed them.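 How the source made its calls: active means fitted curve reaches 40% activation at or below the top valid concentration, in every replicate test; inconclusive means replicate tests disagree on the call; inactive means the rest, including activity in the opposite direction.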
# Assay: activators raising PGC1a acetylation in cells, dose response, cell-based, cherry-picked samples, set 6 (AID 720513);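 further: cells made to overexpress flag tagged PGC1a plus GCN5 acetyltransferase by viral infection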
# Settings: U2OS PGC1a acetylation AlphaLISA, overnight, 0 = neutral, -100 = inhibitor control; at 19.5 µM (top of the series)
row,SMILES,activation (acetylation increase)
1,CN(C)C(=O)Oc1noc2ccccc12,inactive: 12.1%
